Consider 100 compounds from PubChem BioAssay AID504651 (National Center for Advancing Translational Sciences (NCATS), 2011).

Sequences of proteins named here, by UniProt entry; tags and fusion partners are left off.
UniProt P21728, whole entry, looked up: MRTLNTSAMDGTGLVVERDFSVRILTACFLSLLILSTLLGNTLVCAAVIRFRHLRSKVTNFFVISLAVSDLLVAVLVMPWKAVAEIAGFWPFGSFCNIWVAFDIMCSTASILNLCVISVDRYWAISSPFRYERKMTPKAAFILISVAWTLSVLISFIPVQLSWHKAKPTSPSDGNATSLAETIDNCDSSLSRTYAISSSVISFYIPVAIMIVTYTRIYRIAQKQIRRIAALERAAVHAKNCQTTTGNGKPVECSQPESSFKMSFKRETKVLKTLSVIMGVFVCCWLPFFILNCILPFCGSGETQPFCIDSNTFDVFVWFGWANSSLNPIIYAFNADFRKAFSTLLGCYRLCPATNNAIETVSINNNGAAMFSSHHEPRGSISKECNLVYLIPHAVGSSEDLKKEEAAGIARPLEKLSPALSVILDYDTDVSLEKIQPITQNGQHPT

“And” between values parts separate entries of the source, which are not always exact repeats. Equal entries are not always repeated. Only a part is listed here, and it is no random draw. The source made the active and inactive calls. Rule as the data show it: active = potentiation above about 30%; inactive = the rest.

The target in this assay is D(1A) dopamine receptor (Homo sapiens) (UniProt P21728). The assay is described as follows: Potentiators of Human D1 Dopamine Receptor: qHTS. Also: 0% is about no effect. The settings on record: HEK293 TREx D1 cells, calcium flux, dopamine EC20 potentiation; at 10 µM; hits give high values. The source says: Dopamine receptors (DARs) are involved in the etiology and/or therapy of a number of neuropsychiatric and endocrine disorders. For instance, all receptor-based antiparkinsonian drugs work via stimulating the D1 DAR subtype whereas all FDA-approved antipsychotic agents are antagonists of this receptor. […] There are three different types of allosteric modulators that we are seeking, two of which will stimulate or augment receptor signaling, allosteric agonists and potentiators, while the third, allosteric antagonists, will attenuate receptor signaling. The present primary screening assay measures compound potentiation of an EC20 dopamine response by tracking calcium flux in a […], inducible Hek293 Trex D1 cell line.
NIH Chemical Genomics Center [NCGC]
NIH Molecular Libraries Probe Centers Network [MLPCN]
Assay Submitter (PI): David Sibley
Freshly passaged cells are plated in 1536 well black, clear bottom plates at a density of 4000 cells/well in 3 ul of complete media containing 1x tetracycline inducer. After an overnight incubation at 30 C in 5% CO2, cells are loaded with 2 ul of the no wash Calcium Assay Kit (ABD Bioquest) and incubated at room temperature for 30 to 90 minutes. A 10 cycle (1 second/cycle) baseline measurement is taken and then the FDSS online 1536 pintool delivers 23 nl of compound library (as well as dopamine controls) to the plate. The plate is measured for kinetically at 1 cycle/sec for 180 seconds and is considered to be the agonist portion of the assay (eg, compounds which activate a positive calcium response during this portion are flagged as potential agonists). Following the 180 second read, 1 ul of an EC20 of dopamine is delivered by an onboard pipette head. Measurements are taken kinetically for an additional 180 seconds.
Consider `CN(C)C1(CNC(=O)c2ccc(Cl)c(S(N)(=O)=O)c2)CCCCC1`, for which the potentiation is inactive: -2.1%.
With `O=P(Nc1ccccn1)(c1ccc(Br)cc1)c1ccc(Br)cc1`, the potentiation is inactive: 7.09%.
Under `C[C@H]1OP(=O)(Oc2ccccc2)[C@H](O)[C@H](O)[C@H]1N=[N+]=[N-]` (stereo not given in full) stands inactive: -6.5%; under `O=P(Nc1nc2ccccc2s1)(c1ccccc1)c1ccccc1`, inactive: -1.45%; under `CC(=O)NC(SC(=S)N(C)C)C(Cl)(Cl)Cl` (stereo not given), inactive: -0.6%.
For `O=[N+]([O-])c1ncn(CCn2cnc([N+](=O)[O-])n2)n1`, the potentiation was inactive: -6.99%.
Under `O=[N+]([O-])c1ccc(O)c(/C=N/Nc2ccc([N+](=O)[O-])cc2[N+](=O)[O-])c1` stands inactive: 0.2%; under `O=[As](O)(c1ccccc1)c1ccc(O)cc1`, inactive: 0.3%.
Under `C(Cc1nn[nH]n1)Cc1nn[nH]n1` stands inactive: -2.05%.
For `Nc1ccc([As](=O)(O)c2ccc([N+](=O)[O-])cc2)cc1`, the potentiation was inactive: 4.6%.
Under `O=C(OC1CN2CCC1CC2)c1cccc(Cl)c1` (stereo not given) stands inactive: 1.4%; under `O=P(Nc1nccs1)(c1ccccc1)c1ccccc1`, inactive: 12.2%.
Under `CC(C)C(=O)NC(Sc1ccccc1)C(Cl)(Cl)Cl` (stereo not given) stands inactive: -13.9%; under `c1nnnn1CCn1cnnn1`, inactive: -5.85%; under `CCOc1ccc(C2=NCC(CBr)S2)cc1` (stereo not given), inactive: 0.95%.
Under `O=P1(Nc2nc3ccc(Cl)cc3s2)COc2ccccc2O1` (stereo not given) stands inactive: -5.15%.
Turning to `CC(C)(C)C(=O)NC(Sc1ccccc1)C(Cl)(Cl)Cl` (stereo not given), the potentiation was inactive: -1.5%.
Under `CC(=O)c1ccc(N2CC2c2ccncc2)cc1` (stereo not given) stands inactive: 17.1%; under `C[C@H]1OP(=O)(Oc2ccccc2)C[C@@H]2O[C@@H]21` (stereo not given in full), inactive: -4.6%.
Take `C[C@@H]1C=CCP(=O)(Oc2ccccc2)O1` (stereo not given in full): the potentiation is inactive: -7%.
Under `Cc1ccccc1CN(C)C(=O)COC(=O)C(O)(c1ccccc1)c1ccccc1` stands inactive: -3.75%; under `CC(=O)Nc1ccc(Oc2c([N+](=O)[O-])cc([N+](=O)[O-])cc2[N+](=O)[O-])cc1`, inactive: -4.4%.
Take `CC(=O)Nc1ccc([As](=O)(O)O)c(O)c1`: the potentiation is inactive: 0.05%.
For the compound `O=C(NC1CCS(=O)(=O)C1)NP(=S)(Oc1ccccc1)Oc1ccccc1` (stereo not given), the potentiation was inactive: -1.43%.
Under `CCNC(=S)/N=C(\N)N[N+](=O)[O-]` stands inactive: 2.43%; under `Cc1ccc(NP(=O)(Oc2cccc(C)c2)Oc2cccc(C)c2)nc1`, inactive: -5%; under `CCOC(=O)NC(Sc1ccccc1)C(Cl)(Cl)Cl` (stereo not given), inactive: -2.55%.
Under `c1ccc(-c2nn[nH]n2)c(-c2nn[nH]n2)c1` stands inactive: -2.75%.
Under `CC(=O)NC(SC(=S)N(CC(C)C)CC(C)C)C(Cl)(Cl)Cl` (stereo not given) stands inactive: 2.8%; under `Cc1ccc(OP(=O)(Nc2ccccn2)Oc2ccc(C)cc2)cc1`, inactive: -3.75%; under `COC(=O)c1cc2c(s1)N=C(c1ccccc1)N(C)P2(=O)N1CCOCC1` (stereo not given), inactive: -10.2%.
Consider `CCC(=O)N1C2C3N(C(=O)CC)C1C1N(C(=O)CC)C(C(N1C(=O)CC)N3C(=O)CC)N2C(=O)CC`, for which the potentiation was inactive: -3.35%.
Under `O=C(OC1CN2CCC1CC2)c1ccccc1` (stereo not given) stands inactive: -1.25%; under `O=c1c2cc([N+](=O)[O-])ccc2[nH]c2c([N+](=O)[O-])cc([N+](=O)[O-])cc12`, inactive: -7.4%.
In the case of `CN(C)C(=O)Oc1noc2ccccc12`, the potentiation was inactive: 1.65%.
Under `Cc1ccccc1OP(=O)(Nc1ccccn1)Oc1ccccc1C` stands inactive: -10.3%.
Under `CC(=O)Nc1ccc([As](=O)(O)O)cc1` stands inactive: -0.8%; under `O=C(O)c1ccccc1[As](=O)(O)O`, inactive: -5.45%.
Under `O=P(Nc1nc2ccc(Cl)cc2s1)(c1ccccc1)c1ccccc1` stands inactive: -4.5%.
In the case of `Cc1ccc(NP(=O)(Oc2ccccc2F)Oc2ccccc2F)nc1`, the potentiation is inactive: -4.15%.
Under `Cc1cc(SC(NC(=O)c2ccc(F)cc2)C(Cl)(Cl)Cl)ncn1` (stereo not given) stands inactive: -1.05%; under `CCOP(=O)(Nc1ccccc1)OCC`, inactive: -3.27% and inactive: -2.45%.
Under `O=[N+]([O-])c1cc([N+](=O)[O-])c(CCN2CCOCC2)c([N+](=O)[O-])c1` stands inactive: 2.6%.
Under `CCN(N=Nc1nonc1N)c1nonc1N` stands inactive: 3.6%; under `Nc1cccc2ccc([As](=O)(O)O)cc12`, inactive: -8.35%.
Turning to `NC(=O)c1cc([N+](=O)[O-])cc([N+](=O)[O-])c1N`, the potentiation is inactive: -1.35%.
Under `Cc1ccc(N/C(=N/P(=O)(N2CCOCC2)N2CCOCC2)N2CCOCC2)cc1` stands inactive: -5.25%; under `CN(C(=O)Cc1ccc(Cl)c(Cl)c1)[C@H]1CCCC[C@H]1N1CCCC1`, inactive: 3.2%; under `Cc1ccc(OP(=O)(Nc2nccs2)Oc2ccc(C)cc2)cc1`, inactive: 0.75%.
Under `COc1ccccc1OP(=O)(Nc1ccc(C)cn1)Oc1ccccc1OC` stands inactive: 0.2%; under `CN1CCCC(OC(=O)C(c2ccccc2)c2ccccc2)C1` (stereo not given), inactive: 4.7%; under `Clc1ccc(Cl)c(NC2=NCC(CBr)S2)c1` (stereo not given), inactive: -0.85%.
Under `Nc1cc(N)c2nonc2c1[N+](=O)[O-]` stands inactive: -4.85%; under `O=C(NC(Sc1ccncn1)C(Cl)(Cl)Cl)c1ccccc1` (stereo not given), inactive: -8.9%.
On to `Cc1c2non([O-])c-2c(C)[n+](=O)[n+]1[O-]`, for which the potentiation is inactive: 1.6%.
Under `Oc1ccccc1CNc1ccccn1` stands inactive: -4%; under `COc1ccc(C2=NCC(CBr)S2)cc1` (stereo not given), inactive: -8.15%.
As to `CC(=O)N1C2C3N(C(C)=O)C1C1N(C(C)=O)C(C(N1C(C)=O)N3C(C)=O)N2C(C)=O`, the potentiation is inactive: 2.38%.
Under `O=[N+]([O-])c1cccc2n[nH]nc12` stands inactive: -2.05%; under `O=[N+]([O-])c1cc([N+](=O)[O-])c(CCNc2ccccc2)c([N+](=O)[O-])c1`, inactive: -4.95%; under `CCc1nc2c(n1)c1c(non1O)c1c2no[n+]1[O-]`, inactive: -2.25%.
`Cc1ccc(NP(=O)(Oc2ccccc2)Oc2ccccc2)nc1`: the potentiation is inactive: -0.85%.
Under `C[N+]1=C2C=CC=CC=C2SC12C([N+](=O)[O-])=CC([N+](=O)[O-])=C[C-]2[N+](=O)[O-]` (stereo not given) stands inactive: -3.4%; under `Nc1ccc([As](=O)(O)c2ccc(N)cc2)cc1`, inactive: -5%; under `CCN(/C(=N/P(=O)(N1CCOCC1)N1CCOCC1)N1CCOCC1)c1ccc(OC)cc1`, inactive: -5.3%.
Consider `CN(C)C(=O)OCCc1n(C)cc[n+]1C`, for which the potentiation is inactive: -2.4%.
Under `CC(C)=N/N=C(\N)N[N+](=O)[O-]` stands inactive: -1.55%; under `CC1CCN(C(=O)Oc2c(Cl)cc(Cl)c3cccnc23)CC1`, inactive: -7.5%; under `O=C(Nc1cc([As](=O)(O)O)ccc1O)c1ccccc1`, inactive: 0.05%.
Under `CC(C)(C)C(=O)NC(Sc1ccncn1)C(Cl)(Cl)Cl` (stereo not given) stands inactive: 1.6%.
For `O=[N+]([O-])c1ncn(CCn2ncnc2[N+](=O)[O-])n1`, the potentiation is inactive: -4.75%.
`O=[N+]([O-])c1cccc(NC2=NCC(CBr)S2)c1` (stereo not given): the potentiation was inactive: -5.15%.
For `O=C(O)CNc1ccc([As](=O)(O)O)cc1`, the potentiation was inactive: 5.55%.
Under `CCOC(=O)Nc1ccc([As](=O)(O)O)c(O)c1` stands inactive: 1.6%.
Under `Cc1cc(SC(NC(=O)c2ccccc2)C(Cl)(Cl)Cl)nc(C(C)C)n1` (stereo not given) stands inactive: -9.3%; under `CCCCOc1ccc(C(=O)NCC2(N3CCCCC3)CCCCC2)cc1OC`, inactive: 5.75%; under `CCOC(=O)Nc1cccc([As](=O)(O)O)c1`, inactive: 0.3%.
Under `O=[N+]([O-])c1ccc(Nc2ccc(Oc3ccc([N+](=O)[O-])cc3[N+](=O)[O-])cc2)c([N+](=O)[O-])c1` stands inactive: 0.3%.
For the compound `Cc1cc(SC(NC=O)C(Cl)(Cl)Cl)ncn1` (stereo not given), the potentiation was inactive: 1.75%.
Under `O=P(Nc1ccccn1)(c1cccc2ccccc12)c1cccc2ccccc12` stands inactive: 4.59%.
Under `COP1(=S)c2c(C)nn(CCC#N)c2N=C(c2ccc(F)cc2)N1C` (stereo not given) stands inactive: 4.3%; under `O=C(Nc1ccncc1[N+](=O)[O-])c1ccc([N+](=O)[O-])cc1[N+](=O)[O-]`, inactive: 1.45%.
Consider `O=C(COc1ccccc1)OC1CN2CCC1CC2` (stereo not given), for which the potentiation was inactive: 0.35%.
Regarding `CCOC(=O)c1ccc(NC(=O)C(C)(CCl)SC)cc1` (stereo not given), the potentiation was inactive: -4.45%.
Under `O=C(OC1CN2CCC1CC2)c1cccc([N+](=O)[O-])c1` (stereo not given) stands inactive: 1.5%; under `CCOP(=O)(Nc1cccc2cccnc12)OCC`, inactive: 4%.
Under `CCC(C)N(CC(C)C)C(=S)SC(NC(C)=O)C(Cl)(Cl)Cl` (stereo not given) stands inactive: 11.1%.
Under `Cc1cc(=O)[nH]c(N[N+](=O)[O-])n1` stands inactive: -12.2%; under `O=C(OC1CN2CCC1CC2)C12CC3CC(CC(C3)C1)C2` (stereo not given), inactive: -8.8%.
For `Cc1c2c(nc3ccccc13)SC(C(Cl)Cl)C2` (stereo not given), the potentiation is inactive: -5.15%.
On to `COc1cc(I)ccc1[As](=O)(O)O`, for which the potentiation was inactive: -5%.
As for `COc1ccc2nc(NP(=O)(c3ccccc3)c3ccccc3)sc2c1`, the potentiation is inactive: -4.85%.
For the compound `COc1ccc(N/C(=N/P(=O)(N2CCOCC2)N2CCOCC2)N2CCOCC2)cc1`, the potentiation was inactive: -2.6%.
Under `COc1cc(C(=O)NCC2(N3CCOCC3)CCCCC2)ccc1OCC(C)C` stands inactive: -4.85%; under `O=[As](O)(c1ccc(O)cc1)c1ccccc1O`, inactive: -4.5%.
Under `C[As](=O)(O)c1cccc(C(=O)O)c1` stands inactive: 4.2%; under `Cc1ccc2nc3c(c(C)c2c1)CC(C(Cl)Cl)S3` (stereo not given), inactive: -4%.
Under `Cc1ccc(OP(=O)(Nc2ccc([N+](=O)[O-])cn2)Oc2ccc(C)cc2)cc1` stands inactive: 2.8%.
As to `CC(C)c1ccc(OP(=O)(Nc2ccccn2)Oc2ccccc2F)cc1` (stereo not given), the potentiation is inactive: 0.85%.
Under `ClCCSc1nnc(-c2cccnc2)o1` stands inactive: -4.35%.
